How the values were obtained:
[1] = biological target: human glucagon receptor (hGCGR) (Homo sapiens, UniProt P47871); experiment: cAMP production (HTRF) in CHO cells expressing hGCGR; assay type: cell-based; design: expressed in transfected cells; conditions: read-out: hGluc-R EC50, 0.1% BSA, geometric mean
Protocol: (§1) Cells were re-suspended in assay buffer at a batch-dependent optimized concentration (typically hGLP-1R cells at 1×10^5 cells/mL, hGCGR cells at 2×10^5 cells/mL).
(§2) Cells were added to the assay plate using a multidrop dispenser and incubated at room temperature for 30 minutes before measuring the cAMP level using a cAMP dynamic 2 homogeneous time resolved Fluorescence (HTRF) kit (Cisbio Bioassays #62AM4PEJ) following the two-step protocol as per manufacturer's recommendations. In brief, anti-cAMP cryptate (donor fluorophore) and cAMP-d2 (acceptor fluorophore) were made up separately by diluting each 1 in 20 in conjugate and lysis buffer provided in the kit. Anti-CAMP cryptate was added to all wells of the assay plate, followed by cAMP-d2 added to all wells except non-specific binding (NSB) wells (to which conjugate and lysis buffer was added).
(§3) Data was transformed to % Delta F as described in the manufacturer's guidelines and analyzed by 4-parameter logistic fit to determine EC50 values.

Amino acid sequences for entries named in this document (tags omitted). Residues count along the entry.
UniProt P47871, 26-477: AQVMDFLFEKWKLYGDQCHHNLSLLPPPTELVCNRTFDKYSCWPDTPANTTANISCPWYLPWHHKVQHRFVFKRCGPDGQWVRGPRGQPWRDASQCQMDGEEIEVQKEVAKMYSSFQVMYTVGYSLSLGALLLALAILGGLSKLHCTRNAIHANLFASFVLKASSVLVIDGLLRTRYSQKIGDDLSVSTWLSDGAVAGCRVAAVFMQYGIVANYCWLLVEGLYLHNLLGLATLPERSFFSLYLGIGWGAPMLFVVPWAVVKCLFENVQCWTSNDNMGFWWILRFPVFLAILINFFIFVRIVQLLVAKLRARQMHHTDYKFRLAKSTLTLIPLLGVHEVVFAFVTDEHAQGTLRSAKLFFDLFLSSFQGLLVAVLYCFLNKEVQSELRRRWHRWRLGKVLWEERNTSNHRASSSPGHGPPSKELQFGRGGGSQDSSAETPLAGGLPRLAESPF
UniProt P43220, 24-463: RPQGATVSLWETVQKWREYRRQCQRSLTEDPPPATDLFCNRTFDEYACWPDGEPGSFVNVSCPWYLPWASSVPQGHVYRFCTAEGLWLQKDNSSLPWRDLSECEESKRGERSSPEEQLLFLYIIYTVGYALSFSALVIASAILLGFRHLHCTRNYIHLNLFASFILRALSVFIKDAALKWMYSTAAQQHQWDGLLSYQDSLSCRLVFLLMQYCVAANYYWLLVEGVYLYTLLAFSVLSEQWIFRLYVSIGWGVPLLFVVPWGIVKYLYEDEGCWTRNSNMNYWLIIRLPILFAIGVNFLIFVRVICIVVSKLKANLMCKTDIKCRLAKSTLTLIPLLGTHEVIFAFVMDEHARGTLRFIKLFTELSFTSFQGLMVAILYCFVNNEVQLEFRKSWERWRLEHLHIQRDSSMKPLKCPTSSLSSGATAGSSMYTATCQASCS

[2] = biological target: human GLP-1 receptor (hGLP-1R) (Homo sapiens, UniProt P43220); experiment: cAMP production (HTRF) in CHO cells expressing hGLP-1R; assay type: cell-based; design: expressed in transfected cells; conditions: read-out: hGLP-1R EC50, 0.1% BSA, geometric mean
Protocol: as §1, §2, §3

Substance “H(Aib)HGS(αMePhe)TSDK(O20C-O2OC-γE-γE-C20diacid)10SK(αMePhe)LDSRAAQD(αMePhe)VQ(Aib)IANT-amide [Peptide 391]” has an EC50 [1] of 22.2 nM and an EC50 [2] of 0.893 nM.
